# Measured properties of organic chemicals

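The OPERA project collected these measurements from public sources as training and test data for property models. One number stands for a compound and property, with no spread given. Conditions of the individual experiments are not part of the data. The measured form (salt, isomer or mixture) is not always the one drawn. Unmarked limits or estimates from the upstream databases cannot be ruled out.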

Melting points are in °C. Boiling points are in °C, nominally at 760 mmHg. The octanol-water partition coefficient is given as log10; larger values mean a more lipophilic compound. Water solubility is log10 of mol/L, nominally at 25 °C; higher is more soluble. Vapor pressures (log10 mmHg) refer to near room temperature, 15 to 30 °C; higher is more volatile. fu is the fraction unbound in human plasma, from 0 to 1. "–" marks a cell with nothing listed here.

structure (SMILES) | name | mp (°C) | BP (°C) | logP | log solubility (log10 mol/L) | log VP (log10 mmHg) | fu
CCCCCCCCCCCCCCCCCCCCCCOC(=O)c1ccc(O)cc1 | Docosyl 4-hydroxybenzoate | 78 | 407 | – | -8.048 | -6.085 | –
C=CC(C)C(=O)OCC (stereo not given) | Ethyl 2-methylbut-3-enoate | – | – | 2.2 | -1.576 | – | –
C=C(C)C(=O)OCCCCCCCCCCOC(=O)C(=C)C | 1,10-Decanediol dimethacrylate | -10.8 | – | – | -6.35 | – | –
COCc1cc(N)ccc1N | 2-Methoxymethyl-p-phenylenediamine | 80.9 | – | -0.213 | – | -7.173 | –
CCCCC(CC)COC(=O)/C=C\C(=O)OCC(CC)CCCC (stereo partly drawn) | Bis(2-ethylhexyl) maleate | – | – | 7.24 | – | -5.638 | –
CC(=O)OCC(=O)C1=CC[C@@H]2[C@H]3CCC4=CC(=O)C=C[C@@]4(C)[C@@H]3[C@H](OC(C)=O)C[C@@]12C | – | 243.5 | – | 2.8 | -5.029 | -9.639 | –
CC(CCl)OP(=O)(OCC(CCl)(CCl)COP(=O)(OC(C)CCl)OC(C)CCl)OC(C)CCl (stereo not given) | – | 50.5 | 231.3 | 4 | -5.204 | – | –
CCOC(=O)OC(C)OC(=O)[C@@H]1N2C(=O)[C@@H](NC(=O)[C@H](N)c3ccccc3)[C@H]2SC1(C)C (some centres not stated) | Bacampicillin | – | – | – | -3.578 | – | 0.8
C=CCN(CC=C)c1cc(NC(C)=O)c(N=Nc2c(Cl)cc([N+](=O)[O-])cc2[N+](=O)[O-])cc1OC | – | – | – | 1.913 | -4.388 | – | –
C=CC(C)(C)C | 3,3-Dimethyl-1-butene | – | – | 3.04 | -3.413 | – | –
O=S(Cc1ccccc1)Cc1ccccc1 | Benzyl sulfoxide | – | – | – | -2.859 | -7.233 | –
Cc1ccc2nc(-c3ccc(/N=N/c4ccc(-c5nc6ccc(C)c(S(=O)(=O)[O-])c6s5)cc4)cc3)sc2c1S(=O)(=O)[O-].[Na+].[Na+] | – | 367 | – | -2.68 | – | – | –
CCCCC(CC)C(=O)OCCOCCOCCOCCOC(=O)C(CC)CCCC (stereo not given) | Tetraethylene glycol di(2-ethylhexanoate) | – | – | 6.1 | -5.483 | – | –
Clc1ccc(COC(Cn2ccnc2)c2ccc(Cl)cc2Cl)cc1 (stereo not given) | Econazole | – | – | 5.5 | -5.411 | – | –
Cc1csc2c(Cl)cccc12 | 7-Chloro-3-methyl-1-benzothiophene | 11.2 | – | 4.19 | -4.278 | -1.842 | –
CC[N+]1=C(c2ccc3c(c2)C(C)CC(C)(C)N3CCO)c2cccc3cccc1c23.[Cl-] (stereo not given) | – | 120 | – | -0.1 | – | – | –
C=CCCc1ccc(-c2ccc(-c3ccc(CC)cc3)cc2F)cc1 | – | 60.5 | 460 | – | -7.82 | -9.335 | –
C=CC(=O)OCCn1c(=O)n(CCOC(=O)C=C)c(=O)n(CCOC(=O)C=C)c1=O | – | – | – | 1.92 | -2.451 | – | –
Clc1cccc(Cl)c1-c1ccccc1 | 2,6-Dichlorobiphenyl | 35 | – | – | – | -2.585 | –
O=C1COCCN1c1ccccc1 | 4-phenylmorpholin-3-one | – | 331.1 | – | – | -4.961 | –
CCC(C)C1CCCc2cccnc21 (stereo not given) | 8-sec-Butyl-5,6,7,8-tetrahydroquinoline | – | 276 | – | -3.438 | -2.34 | –

Extract of 3 entries:

| structure (SMILES) | name | mp (°C) | BP (°C) | logP | log solubility (log10 mol/L) | log VP (log10 mmHg) | fu |
|---|---|---|---|---|---|---|---|
| CC(CCl)OP(=O)(OCC(CCl)(CCl)COP(=O)(OC(C)CCl)OC(C)CCl)OC(C)CCl (stereo not given) | – | 50.5 | 231.3 | 4 | -5.204 | – | – |
| CC[N+]1=C(c2ccc3c(c2)C(C)CC(C)(C)N3CCO)c2cccc3cccc1c23.[Cl-] (stereo not given) | – | 120 | – | -0.1 | – | – | – |
| Cc1ccc2nc(-c3ccc(/N=N/c4ccc(-c5nc6ccc(C)c(S(=O)(=O)[O-])c6s5)cc4)cc3)sc2c1S(=O)(=O)[O-].[Na+].[Na+] | – | 367 | – | -2.68 | – | – | – |

Data: OPERA 2.9 data sets, kmansouri/OPERA on GitHub.